Target: Serotonin 3 (5-HT3) receptor (Homo sapiens) (UniProt P46098+A5X5Y0+O95264+Q70Z44+Q8WXA8)
Assay: In vitro 5-hydroxytryptamine 3 receptor activity in guinea pig ileum
Type: tissue-based
Settings: Cavia porcellus, target entry is the homologue from another species

Protein sequences, listed by entry. Tags and fused reporters are not part of them. Lines headed by an entry give the natural chain unless they say otherwise; changes in a name come on top.
UniProt P46098: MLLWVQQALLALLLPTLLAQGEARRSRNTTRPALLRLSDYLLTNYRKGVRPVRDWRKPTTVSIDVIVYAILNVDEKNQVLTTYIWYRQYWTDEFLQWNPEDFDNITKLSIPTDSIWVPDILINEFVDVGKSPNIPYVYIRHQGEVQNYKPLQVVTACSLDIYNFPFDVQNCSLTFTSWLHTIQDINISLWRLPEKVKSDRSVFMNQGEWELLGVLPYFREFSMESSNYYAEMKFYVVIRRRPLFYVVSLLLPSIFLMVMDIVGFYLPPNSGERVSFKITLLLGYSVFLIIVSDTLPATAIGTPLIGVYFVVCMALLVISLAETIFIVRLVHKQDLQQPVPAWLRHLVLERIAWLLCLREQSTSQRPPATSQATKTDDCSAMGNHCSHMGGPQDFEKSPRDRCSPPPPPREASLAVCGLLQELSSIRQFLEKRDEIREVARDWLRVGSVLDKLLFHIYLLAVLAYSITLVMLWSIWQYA
UniProt A5X5Y0: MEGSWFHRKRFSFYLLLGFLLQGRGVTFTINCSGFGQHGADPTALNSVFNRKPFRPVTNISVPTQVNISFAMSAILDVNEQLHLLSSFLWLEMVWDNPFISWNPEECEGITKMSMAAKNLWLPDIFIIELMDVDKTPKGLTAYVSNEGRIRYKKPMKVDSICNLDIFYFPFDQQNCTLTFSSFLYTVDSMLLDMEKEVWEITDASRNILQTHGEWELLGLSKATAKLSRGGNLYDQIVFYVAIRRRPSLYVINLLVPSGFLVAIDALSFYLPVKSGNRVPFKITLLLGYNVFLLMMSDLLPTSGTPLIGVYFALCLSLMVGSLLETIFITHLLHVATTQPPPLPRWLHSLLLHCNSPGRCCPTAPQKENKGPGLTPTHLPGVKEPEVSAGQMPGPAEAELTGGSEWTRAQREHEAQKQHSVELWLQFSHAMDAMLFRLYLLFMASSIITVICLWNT
UniProt O95264: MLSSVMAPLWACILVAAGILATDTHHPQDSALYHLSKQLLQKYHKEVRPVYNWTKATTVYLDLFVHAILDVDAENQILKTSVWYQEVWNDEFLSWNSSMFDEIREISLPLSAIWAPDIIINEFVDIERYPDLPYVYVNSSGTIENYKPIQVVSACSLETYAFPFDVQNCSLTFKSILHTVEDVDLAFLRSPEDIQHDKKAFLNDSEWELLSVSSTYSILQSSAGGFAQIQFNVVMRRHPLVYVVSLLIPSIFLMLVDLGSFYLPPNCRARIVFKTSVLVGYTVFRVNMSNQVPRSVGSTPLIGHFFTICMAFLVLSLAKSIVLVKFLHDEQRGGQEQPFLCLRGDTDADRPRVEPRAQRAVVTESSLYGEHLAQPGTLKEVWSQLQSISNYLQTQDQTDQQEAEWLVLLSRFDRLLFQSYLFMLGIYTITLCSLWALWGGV
UniProt Q70Z44: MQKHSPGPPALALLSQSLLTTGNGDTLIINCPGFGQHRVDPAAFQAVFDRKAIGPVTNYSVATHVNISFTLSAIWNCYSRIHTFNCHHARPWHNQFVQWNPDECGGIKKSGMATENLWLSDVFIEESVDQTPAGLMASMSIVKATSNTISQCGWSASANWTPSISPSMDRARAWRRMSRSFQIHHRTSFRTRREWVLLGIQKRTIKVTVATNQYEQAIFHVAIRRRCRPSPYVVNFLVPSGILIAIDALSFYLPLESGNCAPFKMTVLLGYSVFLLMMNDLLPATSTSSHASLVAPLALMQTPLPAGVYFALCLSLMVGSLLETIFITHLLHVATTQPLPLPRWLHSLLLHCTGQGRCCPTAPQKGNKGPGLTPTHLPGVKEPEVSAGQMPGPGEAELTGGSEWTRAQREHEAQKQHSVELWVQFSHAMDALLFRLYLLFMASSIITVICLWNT
UniProt Q8WXA8: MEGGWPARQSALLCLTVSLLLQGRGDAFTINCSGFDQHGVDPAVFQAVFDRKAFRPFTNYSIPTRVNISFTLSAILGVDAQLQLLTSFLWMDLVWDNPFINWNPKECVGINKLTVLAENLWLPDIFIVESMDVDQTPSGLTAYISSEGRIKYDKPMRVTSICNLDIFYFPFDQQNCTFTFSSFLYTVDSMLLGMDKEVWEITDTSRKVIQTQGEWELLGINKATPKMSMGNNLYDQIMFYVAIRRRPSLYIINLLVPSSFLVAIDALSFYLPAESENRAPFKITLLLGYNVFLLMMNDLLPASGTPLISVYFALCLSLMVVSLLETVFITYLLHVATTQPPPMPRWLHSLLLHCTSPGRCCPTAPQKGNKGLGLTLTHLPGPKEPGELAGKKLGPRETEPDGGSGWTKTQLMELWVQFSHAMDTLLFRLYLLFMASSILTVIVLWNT

Row | Structure (SMILES) | Kb [nM]
1 | Nc1c(Cl)cc(C(=O)O[C@@H]2CN3CCC2CC3)c2c1CCO2 | 6.91
2 | Nc1c(Cl)cc(C(=O)O[C@H]2CN3CCC2CC3)c2c1CCO2 | 19

Source: ChEMBL document CHEMBL1128962, “Serotoninergic 5-HT3 and 5-HT4 receptor activities of dihydrobenzofuran carboxylic acid derivatives” (Bioorg Med Chem Lett, 1996)
